Reference: publication PMC6747088, “THP-1 Cells and Pro-Inflammatory Cytokine Production: An In Vitro Tool for Functional Characterization of NOD1/NOD2 Antagonists” (International Journal of Molecular Sciences, 2019)

Target: T1, NOD1 (Homo sapiens, UniProt Q9Y239)
T1 construct: THP-1 cells also express high levels of native functional NOD1 and NOD2 and respond to NOD stimulation by IL-8 secretion; endogenous in cells; host or cells: THP-1 cells (Istituto Zooprofilattico di Brescia)
T1 sequence (Q9Y239 1-953): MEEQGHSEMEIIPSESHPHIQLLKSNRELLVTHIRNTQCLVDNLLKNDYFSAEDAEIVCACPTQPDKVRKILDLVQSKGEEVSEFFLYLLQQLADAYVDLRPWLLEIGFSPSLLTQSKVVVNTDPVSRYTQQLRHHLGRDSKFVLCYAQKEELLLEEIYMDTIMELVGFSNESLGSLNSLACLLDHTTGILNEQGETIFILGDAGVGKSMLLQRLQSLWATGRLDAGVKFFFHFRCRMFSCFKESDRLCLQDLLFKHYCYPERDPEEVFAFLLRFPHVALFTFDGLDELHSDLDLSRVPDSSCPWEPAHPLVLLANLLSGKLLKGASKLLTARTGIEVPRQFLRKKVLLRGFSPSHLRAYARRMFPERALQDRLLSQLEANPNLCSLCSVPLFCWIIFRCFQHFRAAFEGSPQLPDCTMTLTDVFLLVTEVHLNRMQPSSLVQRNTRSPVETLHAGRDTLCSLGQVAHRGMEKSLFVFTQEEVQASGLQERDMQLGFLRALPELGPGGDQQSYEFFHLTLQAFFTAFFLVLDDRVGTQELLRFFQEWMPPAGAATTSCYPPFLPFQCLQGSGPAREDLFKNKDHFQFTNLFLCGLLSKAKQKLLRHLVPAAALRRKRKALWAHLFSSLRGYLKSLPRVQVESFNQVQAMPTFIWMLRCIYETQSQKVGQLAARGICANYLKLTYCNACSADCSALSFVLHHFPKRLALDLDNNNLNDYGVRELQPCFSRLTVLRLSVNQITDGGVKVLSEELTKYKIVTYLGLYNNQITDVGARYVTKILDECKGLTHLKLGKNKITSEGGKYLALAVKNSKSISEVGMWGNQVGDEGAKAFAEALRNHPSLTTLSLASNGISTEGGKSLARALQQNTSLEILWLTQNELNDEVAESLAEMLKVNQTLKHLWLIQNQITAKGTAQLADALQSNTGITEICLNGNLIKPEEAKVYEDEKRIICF
Experiment: C12-iE-DAP (NOD1 agonist)-induced IL-8 secretion from THP-1 cells
Type: cell-based
Settings: 1 h pretreatment, C12-iE-DAP 10 µM, 20 h, read-out: IC50 (NOD1), inhibition of IL-8 release
Description: For all experiments, THP-1 cells (Istituto Zooprofilattico di Brescia, Brescia, Italy) were diluted to 10^6 cells/mL in RPMI 1640 containing 2 mM L-glutamine, 0.1 mg/mL streptomycin, 100 IU/mL penicillin, 50 μM 2-mercaptoethanol, and supplemented with 10% heat-inactivated fetal calf serum (media) and cultured at 37 °C in 5% CO2. The experiments were carried out on passages 3–12. To evaluate IL-8 and TNF-α production, cultures were set up in 24-well culture plates containing 500 μL of cells. They were pretreated with selected NOD antagonists at increasing concentrations for 1 h before the addition of either MDP or C12-iE-DAP (both at 10 µM) and then incubated for 20 h. […]
IL-8 and TNF-α release from THP-1 cells were measured in cell-free supernatants obtained by centrifugation at 3000 rpm for 5 min and stored at −80 °C until measurement. IL-8 and TNF-α production were assessed by specific sandwich ELISA (Immunotools, Friesoythe, Germany; eBioScience/R&D Systems, Minneapolis, MN, USA). […]
All experiments were performed at least three times, with average values expressed as means ± standard deviation (SD). […] Statistical significance was determined either with the Mann-Whitney or Kruskal-Wallis followed by a post hoc Dunn’s multiple comparison test, as indicated in the figure legends. […] IC50 values of NOD1/2 inhibition were calculated by a nonlinear regression model using GraphPad Prism 6 software.

Cc1ccc(S(=O)(=O)n2c(N)nc3ccccc32)cc1 [ML130]
IC50: 2970 ± 310 nM
